Data published in publication PMC12667295, “A surrogate barrier model for high-throughput blood-brain barrier permeability prediction: integrating LLC-PK1-MOCK/MDR1 Cells and lysosomal trapping correction” (Drug Delivery, 2025).

Tests used:
in vitro = settings: pig, LLC-PK1 MOCK cell monolayer (Transwell), pH 7.4
P-gp (human MDR1) = assay: in vitro; settings: pig, LLC-PK1, pH 7.4;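 further: 2 h incubation at 37 °C, receiver HBSS with 10 mM Hepes plus 1% BSA, LC-MS/MS of donor and receiver, recovery as receiver plus donor amount over initial donor amount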

Compound	recovery at 2 h, 2 µM (in vitro)	recovery at 2 h, 2 µM (P-gp (human MDR1))
CC(NC(C)(C)C)C(=O)c1cccc(Cl)c1 (stereo not shown) [Bupropion]	102 ± 4.17%	104 ± 7.38%
CCOc1ccc(NC(C)=O)cc1 [Phenacetin]	118 ± 2.92%	119 ± 1.31%
